Results as given in ChEMBL document CHEMBL1152751, “2,5-Disubstituted tetrahydrofurans as selective serotonin re-uptake inhibitors” (Bioorg Med Chem, 2009).

Protein sequences, listed by entry. Tags and fused reporters are not part of them.
UniProt P23975, whole entry: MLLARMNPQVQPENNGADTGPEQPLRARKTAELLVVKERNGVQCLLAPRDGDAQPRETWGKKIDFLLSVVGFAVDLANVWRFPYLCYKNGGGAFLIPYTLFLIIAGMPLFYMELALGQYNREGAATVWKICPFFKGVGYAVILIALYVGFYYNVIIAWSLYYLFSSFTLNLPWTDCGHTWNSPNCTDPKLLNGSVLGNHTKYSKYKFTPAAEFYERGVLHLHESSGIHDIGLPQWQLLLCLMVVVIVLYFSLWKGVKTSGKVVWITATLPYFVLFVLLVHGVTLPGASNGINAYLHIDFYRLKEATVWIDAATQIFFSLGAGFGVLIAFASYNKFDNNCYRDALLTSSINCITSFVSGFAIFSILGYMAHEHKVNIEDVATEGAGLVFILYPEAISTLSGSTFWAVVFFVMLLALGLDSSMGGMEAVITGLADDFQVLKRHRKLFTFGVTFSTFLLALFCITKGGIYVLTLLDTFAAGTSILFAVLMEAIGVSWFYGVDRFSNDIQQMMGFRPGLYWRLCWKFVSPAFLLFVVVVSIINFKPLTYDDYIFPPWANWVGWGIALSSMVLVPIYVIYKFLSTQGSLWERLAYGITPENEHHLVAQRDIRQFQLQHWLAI

Columns and labels:
[1] = target: T1, Sodium-dependent noradrenaline transporter (Homo sapiens, UniProt P23975); assay: biochemical; assay type: cell-based, HEK293
[2] = target: T1, Sodium-dependent noradrenaline transporter; assay: Inhibition of [3H]norepinephrine reuptake at human NET expressed in HEK cells; assay type: cell-based, HEK293
Liver microsomes = assay: Metabolic stability assessed as half life in rat liver microsomes; assay type: ADME, Microsome

t1/2 (Liver microsomes) [h]	SMILES	Ki [1] [µM]	IC50 [2] [µM]
–	COc1ccc(F)cc1CCC[C@@H]1CC[C@H](CN)O1 (relative stereo)	20.2	2.86
–	COc1ccc(F)cc1[C@H]1CC[C@H](CCN)O1	27.5	> 10
1.77	COc1ccc(F)cc1CCC1CCC(CCN)O1 (centres undefined)	–	–
–	COc1ccc(F)cc1CCC[C@H]1CC[C@H](CN)O1 (relative stereo)	8.54	2.93
–	COc1ccc(F)cc1[C@@H]1CC[C@H](CCN)O1 (relative stereo)	48.9	> 10
